The values below come from patent US8999691B2 (priority 2010, dated 2015).

This series concerns OC[C@H]1OC(O)[C@H](O)[C@@H](O)[C@@H]1O. Description: purified protein, by the assay type. The note with it: other: glucose 1-40 mM, DCIP 0.3 mM/PMS 0.6 mM, pH 6.5, partially purified enzyme, 20.0 °C.

Turning to “Botryotinia fuckeliana glucose dehydrogenase (Bfu-GDH, FAD-GDH), wild type, SEQ ID NO:2 (Botrytis cinerea B05.10)”, the Michaelis-Menten constant (Km) (usually the substrate concentration at which the rate is half of its maximum) is reported as 60.3 mM.
